According to patent publication US5221675A, “Aza-spirocyclic compounds that enhance cholinergic neurotransmission” (Abbott Laboratories, priority 1991, dated 1993):

Test system: Rat striatal muscarinic receptors
Assay: Agonist intrinsic activity: inhibition of forskolin-activated [3H]cAMP in dissociated rat striatum
Format: cell-based
Description: Rat striatal muscarinic receptors are coupled to the inhibition of the conversion of adenosine triphosphate (ATP) to cyclic adenosine monophosphate (cAMP). This method is described in detail in D. J. Anderson and M. McKinney, Brain Res, 1988, 475:28-34. The ATP stores in dissociated rat striatum were labeled with [^3 H]adenine and [^3 H]-cAMP levels were elevated with 10 um forskolin. Muscarinic receptor activation with the agonist carbachol inhibits forskolin-activated levels of [^3 H]cAMP by about 40%. Most agonists stimulate this receptor-effector system with EC50 values in the range of 0.1-10 uM. Intrinsic activities (maximal responses relative to that of the full agonist carbachol) can thus be measured at 100 uM. Agonist activation of this biochemical response is expressed as percent activity measured at 100 uM relative to that of 100 uM carbachol.

SMILES: C[N+](C)(C)CCOC(N)=O [carbachol]
- Agonist character at central muscarinic receptor: full agonist
- Inhibition of forskolin-activated levels of [3H]cAMP (10 um forskolin): about 40%
